From ChEMBL document CHEMBL1133532
Only a part of the results on these compounds is given; other tests are left out.

Assay: Partition coefficient (logP)
Conditions: octanol/water

| SMILES | logP |
| --- | --- |
| CC(C)N1CCC(OC(=O)C(O)(c2ccccc2)c2ccccc2)CC1 | 3.59 |
| O=C(OC1CCCN(CCCF)C1)C(O)(c1ccccc1)c1ccccc1 (stereo not given) | 3.51 |
| CCN1CCC(OC(=O)C(O)(c2ccccc2)c2ccccc2)CC1 | 3.23 |
| O=C(OC1CCN(Cc2ccccc2)C1)C(O)(c1ccccc1)c1ccccc1 (stereo not given) | 4.56 |
| O=C(OC1CCCN(Cc2ccc(F)cc2)C1)C(O)(c1ccccc1)c1ccccc1 (stereo not given) | 5.17 |
| O=C(OC1CCCN(Cc2ccccc2)C1)C(O)(c1ccccc1)c1ccccc1 (stereo not given) | 5.02 |
| O=C(OC1CCN(CCF)CC1)C(O)(c1ccccc1)c1ccccc1 | 3.06 |
| O=C(OC1CCN(Cc2ccc([N+](=O)[O-])cc2)CC1)C(O)(c1ccccc1)c1ccccc1 | 4.2 |
| CCCN1CCCC(OC(=O)C(O)(c2ccccc2)c2ccccc2)C1 (stereo not given) | 4.08 |
| O=C(OC1CCCN(CCF)C1)C(O)(c1ccccc1)c1ccccc1 (stereo not given) | 3.43 |
| O=C(OC1CCNCC1)C(O)(c1ccccc1)c1ccccc1 | 2.51 |
| O=C(OC1CCN(CCc2ccc([N+](=O)[O-])cc2)CC1)C(O)(c1ccccc1)c1ccccc1 | 4.46 |
| O=C(OC1CCN(Cc2ccc(F)cc2)C1)C(O)(c1ccccc1)c1ccccc1 (stereo not given) | 4.72 |
| CC(CF)N1CCC(OC(=O)C(O)(c2ccccc2)c2ccccc2)C1 (stereo not given) | 3.35 |
| O=C(OC1CCN(CCF)C1)C(O)(c1ccccc1)c1ccccc1 (stereo not given) | 2.98 |
| O=C(OC1CCN(CCCF)CC1)C(O)(c1ccccc1)c1ccccc1 | 3.14 |
| O=C(OC1CCN(CCCF)C1)C(O)(c1ccccc1)c1ccccc1 (stereo not given) | 3.06 |
| O=C(OC1CCN(CCc2ccccc2)CC1)C(O)(c1ccccc1)c1ccccc1 | 4.9 |
| CC(CF)N1CCC(OC(=O)C(O)(c2ccccc2)c2ccccc2)CC1 (stereo not given) | 3.43 |
| O=C(OC1CCN(Cc2ccccc2)CC1)C(O)(c1ccccc1)c1ccccc1 | 4.64 |
| O=C(OC1CCN(Cc2ccc(F)cc2)CC1)C(O)(c1ccccc1)c1ccccc1 | 4.79 |
| CCN1CCC(OC(=O)C(O)(c2ccccc2)c2ccccc2)C1 (stereo not given) | 3.15 |
| CC(CF)N1CCCC(OC(=O)C(O)(c2ccccc2)c2ccccc2)C1 (stereo not given) | 3.8 |
| O=C(OC1CCCNC1)C(O)(c1ccccc1)c1ccccc1 (stereo not given) | 2.89 |
| O=C(OC1CCNC1)C(O)(c1ccccc1)c1ccccc1 (stereo not given) | 2.44 |
